According to patent US12121540B2, “CBL inhibitors and compositions for use in adoptive cell therapy” (Nurix Therapeutics, Inc., priority 2019, dated 2024):

Experiments:
CD4/8+ T cells = assay: Intracellular IFN-γ after PMA/ionomycin stimulation of expanded T cells; assay type: cell-based, human; conditions: IL-2 expanded T cells; PMA/ionomycin 6 h
Protocol: T cell activity was determined by analysis of cytokine secretion. To investigate whether these expanded T cells are capable of responding to extracellular stimulation, T cells were stimulated with 25 ng/mL phorbol myristate acetate (PMA) and 0.5 μM ionomycin. After 90 min of stimulation, monensin, 1:50, (GolgiStop, BD Biosciences) was added. After 6 h, cells were stained for surface expression of CD4+, CD8+, CD45RA+, CD95+, CCR7+, CD62L+, and subsequently, fixed, permeabilized and stained for intracellular cytokine, IFN-γ. After 6 hr, we observed a clear increase in accumulated intracellular IFN-γ, an important effector of the anti-tumor response when T cells had been expanded with IL-2 and Cbl inhibitor.

[1] = system: human tumor-infiltrating lymphocytes (TIL); assay: Flow cytometry immunophenotyping of expanded TIL; assay type: cell-based; conditions: TIL1 population; IL-2 alone; day 28
Protocol: (§1) For TIL generation, single 8 mm^3 tumor fragments were added to each well of a 24-well plate containing 2 mL RPMI medium containing 25 mM HEPES, 10% heat inactivated human AB serum, 100 U/mL penicillin, 100 μg/ml streptomycin, 2 mM L-glutamine, 10 μg/ml gentamycin and 0.25 μg/ml Fungizone (Complete Medium; CM) with either 6000 IU/mL IL-2 in the presence or absence of 0.1-10 μM of a Cbl inhibitor, or with 0.1-10 μM of the Cbl inhibitor alone. The plates were placed in a humidified 37° C. incubator with 5% CO2. Half of the medium was replaced every two days after culture initiation. As wells became confluent, the contents were mixed vigorously, split into two daughter wells, and filled to 2 mL per well with RPMI medium with either 6000 IU/mL IL-2 in the presence or absence of 0.1-10 μM of the Cbl inhibitor, or with 0.1-10 μM of the Cbl inhibitor alone. Subsequently, half the media was replaced thrice weekly, cultures were split to maintain a cell density of 1×10^6 cells/mL. […] Mitochondrial markers including, Mitotracker, Mitoprobe, and 2-NBDG may also be used to assess differentiation and/or activation of cells. The initial TIL generation step may be shortened from 28 days to between about 7-11 days with similar results.
T lymphocytes were defined based on lineage and differentiation marker expression according to the developmental model (Restifo, Blood, 124:476-477, 2014), as shown in Table 4. […] Monocytes (CD14+), B cells (CD20+) and NK cells (CD56+) accounted for <10% of the total number of cells.

[2] = system: human T cells from peripheral blood mononuclear cells; assay: Expansion of CMV pp65 reactive T cells from peripheral blood mononuclear cells; assay type: cell-based
Protocol: (§2) CMV pp65 (495-503) reactive T cells were expanded by thawing CMV seropositive donors (Conversant) and 2×10^6 cells/ml were resuspended in RPMI medium (Gibco) supplemented with 1% GlutaMax (Gibco), 1% non-essential amino acids (NEAA), penicillin/streptomycin (Gibco), 10% heat inactivated human AB serum (Corning), 1 μg/ml CMV pp65 (495-503) (Anaspec), 2 ng/mL IL-2 (R&D), and/or Cbl inhibitor (01, 1, 10 μM). PBMCs were cultured for eight days with IL-2 and/or Cbl inhibitor and replenished at day three and day five. At day eight, cells were harvested, and re-plated in low dose IL-2 (100 U/ml) and/or Cbl inhibitor at 2 million/ml in complete RPMI media for two days. At day eleven, cells were pooled and counted, and immunophenotyped at day 11 by flow cytometry by measuring expression of lineage (CD4, CD8) and differentiation (including CD45RA, CD45RO, CD95, CCR7, CD62L, TCF1, PD-1, TIM3, LAG3) markers.

[3] = system: human tumor-infiltrating lymphocytes (TIL); assay: Rapid Expansion Protocol (REP) of TIL; assay type: cell-based; conditions: day 42 (Pre-REP and REP)
Protocol: Rapid Expansion Protocol (REP) used OKT3 (anti-CD3) antibody (Thermo Fisher Scientific) and IL-2 in the presence of irradiated, allogeneic feeder cells (Astarte Biologics) at a 200:1 ratio of feeder cells to responding TIL cells. PBMC, OKT3 antibody (30 ng/mL), complete medium (“CM”), AIM V media (GIBCO/BRL), and TIL effector cells were combined, mixed, and aliquoted to a 75 cm^2 tissue culture flask. Flasks were incubated upright at 37° C. in 5% CO2. IL-2 (6000 IU/mL) and/or Cbl inhibitor (0.1, 1, 10 μM) were added on day 2. On day 5, culture supernatant was removed by aspiration and media was replaced with a 1:1 mixture of CM/AIM V containing 6000 IU/mL IL-2 and/or Cbl inhibitor. On day 6, and every day thereafter, cell concentration was determined, and cells were split into additional flasks with additional medium containing 6000 CU/mL IL-2/Cbl inhibitor as needed to maintain cell densities around 1×10^6 cells/mL. About 14 days after initiation of the REP, cells were harvested and cryopreserved for future experimental analysis.
Only TIL that expanded during the pre-REP protocol were further expanded in the REP protocol: TIL1, TIL3, TIL4 & TIL6. The magnitude of TIL expansion during the REP varied between the tumor samples. For this reason, the total cell numbers are shown in Table 3 as a percentage of the IL-2 alone condition during the REP expansion protocol.

[4] = system: human T cells from peripheral blood mononuclear cells; assay: Flow cytometry immunophenotyping of T cells expanded from donor PBMC; assay type: cell-based; conditions: IL-2 alone, day 11
Protocol: as §2
T lymphocytes were defined based on lineage and differentiation marker expression according to the developmental model (Restifo, Blood, 124:476-477, 2014), as shown in Table 4.

CD8+ and CD4+ TIL = assay: CD107a and granzyme B in TIL after anti-CD3/CD28 stimulation; assay type: cell-based, human; conditions: expanded with IL2; anti-CD3/CD28 6 hours
Protocol: To investigate whether expanded TIL are capable of responding to extracellular stimulation, TIL were stimulated with anti-CD3/CD28 for 6 hours in the presence of secretion inhibitors and anti-CD107a. […] Upon stimulation, an average of 40% of CD8^+ TIL expanded with IL2 were positive for CD107A expression, and greater than 60% of CD8^+ TIL expanded with IL2+ compound 103 were capable of producing CD107a (FIG. 27A). Upon stimulation, an average of 50% of CD4^+ TIL expanded with IL2 were positive for CD107A expression, and greater than 60% of CD4^+ TIL expanded with IL2+ compound 103 were capable of producing CD107a (FIG. 27B).
In the context of cytotoxicity, granzyme B (Grb), a protease secreted to mediate apoptosis, was assessed. […] From this, we conclude that Cbl inhibitor appears to expand TIL with increased cytotoxic potential.

[5] = system: human tumor-infiltrating lymphocytes (TIL); assay: Ex vivo expansion of TIL from human tumor fragments (pre-REP); assay type: cell-based; conditions: day 17
Protocol: Samples of human ovarian and colon tumors were obtained from the Cooperative Human Tissue Network (CHTN, c/o Vanderbilt University Medical Center, Nashville, TN). Solid tumor specimens were carefully dissected free of surrounding fatty and necrotic areas. The tumors were sliced into 8 mm^3 (2×2×2 mm^3) fragments under sterile conditions using a scalpel and a scalpel holder.
as §1

“IL-2: cytokine used as standard comparator for ex vivo expansion of TIL and T cells” was tested, and the “CD4/8+ T cells positive for IFN-γ expression” value (CD4/8+ T cells) was “approximately 50%”, the “CD4 TCM CD62L+ CCR7+, percentage of total TIL cell number” value [1] was 1.8% and the “CD4 TEM CD62L− CCR7−, percentage of total TIL cell number” value [1] was 48.9%. For the same substance, the “CD8 TCM CD62L+ CCR7−, percentage of total TIL cell number” value [1] was 4.2%, the “CD8 TEM CD62L− CCR7−, percentage of total TIL cell number” value [1] was 48.7% and the “Expansion of T cells from PBMC, total cell number relative to IL-2 alone” value ([2]; Donor 1, day 11) was 100%. The “Expansion of T cells from PBMC, total cell number relative to IL-2 alone” value ([2]; Donor 2, day 11) was 100%, the “Expansion of T cells from PBMC, total cell number relative to IL-2 alone” value ([2]; Donor 3, day 11) was 100% and the “Expansion of TIL (REP), total cell number relative to IL-2 alone” value ([3]; TIL1 (ovary)) was 100%. For the same substance, the “Expansion of TIL (REP), total cell number relative to IL-2 alone” value ([3]; TIL3 (ovary)) was 100%, the “Expansion of TIL (REP), total cell number relative to IL-2 alone” value ([3]; TIL4 (colon)) was 100% and the “Expansion of TIL (REP), total cell number relative to IL-2 alone” value ([3]; TIL6 (ovary)) was 100%. The “CD4 TCM, percentage of total cell number” value [4] was 43.2%, the “CD4 TEM, percentage of total cell number” value [4] was 24.9% and the “CD4 TSCM, percentage of total cell number” value [4] was 16.9%. For the same substance, the “CD8 TCM, percentage of total cell number” value [4] was 25.4%, the “CD8 TEM, percentage of total cell number” value [4] was 11% and the “CD8 TSCM, percentage of total cell number” value [4] was 39.9%. For the same substance, the “CD4+ TIL positive for CD107A expression” value (CD8+ and CD4+ TIL) was 50%, the “CD8+ TIL positive for CD107A expression” value (CD8+ and CD4+ TIL) was 40% and the “Expansion of TIL, total cell number relative to IL-2 alone” value ([5]; TIL1 (ovary)) was 100%. The “Expansion of TIL, total cell number relative to IL-2 alone” value ([5]; TIL2 (ovary)) was 100%, the “Expansion of TIL, total cell number relative to IL-2 alone” value ([5]; TIL3 (ovary)) was 100% and the “Expansion of TIL, total cell number relative to IL-2 alone” value ([5]; TIL4 (colon)) was 100%. The “Expansion of TIL, total cell number relative to IL-2 alone” value ([5]; TIL5 (ovary)) was 100% and the “Expansion of TIL, total cell number relative to IL-2 alone” value ([5]; TIL6 (ovary)) was 100%.
